By UniProt entry, the sequences of proteins in these tests, tags left out. Where a name states a change or a piece, a line headed by the entry shows the natural chain unless it says otherwise.
UniProt Q86WV6: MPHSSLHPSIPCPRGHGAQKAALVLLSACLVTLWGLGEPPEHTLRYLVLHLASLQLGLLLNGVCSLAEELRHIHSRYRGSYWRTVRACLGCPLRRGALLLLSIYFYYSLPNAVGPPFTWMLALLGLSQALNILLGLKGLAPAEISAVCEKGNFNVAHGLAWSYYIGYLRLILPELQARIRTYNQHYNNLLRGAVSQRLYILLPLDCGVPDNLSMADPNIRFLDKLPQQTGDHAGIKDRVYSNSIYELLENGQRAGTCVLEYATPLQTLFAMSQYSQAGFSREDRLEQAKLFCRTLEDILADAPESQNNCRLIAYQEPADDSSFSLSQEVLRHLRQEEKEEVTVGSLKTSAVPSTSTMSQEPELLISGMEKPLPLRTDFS

In ChEMBL document CHEMBL5728787, “Sting agonists” (2021):

target: T1, Stimulator of interferon genes protein (Homo sapiens, UniProt Q86WV6); assay: Binding Assay: A human STING [3H] 2′,3′-cGAMP scintillation proximity competition binding assay was utilized to detect binding of compounds to STING protein. The competition binding assay was conducted with either a wild-type (WT, SEQ ID NO: 1) or an AQ variant (SEQ ID NO: 2) of truncated human STING protein that lacks the N-terminal four transmembrane domains and contains amino acids …

Structure (SMILES)	IC50 [µM]
Nc1nc2c(nnn2[C@H]2O[C@@H]3COP(=O)(S)OCCn4c(nc5cncnc54)COP(=O)(S)O[C@@H]2[C@H]3F)c(=O)[nH]1 (some centres undefined)	< 1
Nc1nc2c(ncn2[C@@H]2O[C@@H]3COP(=O)(S)OCCn4c(nc5cncnc54)COP(=O)(S)O[C@@H]2[C@H]3O)c(=O)[nH]1 (some centres undefined)	< 1
Nc1nc2c(ncn2[C@H]2O[C@@H]3COP(=O)(S)OCCn4c(nc5cncnc54)COP(=O)(O)O[C@@H]2[C@H]3F)c(=O)[nH]1 (some centres undefined)	< 1
Nc1nc2c(ncn2[C@H]2O[C@@H]3COP(=O)(S)OCCn4nc(-c5cncs5)nc4COP(=O)(S)O[C@@H]2[C@H]3F)c(=O)[nH]1 (some centres undefined)	< 1
Nc1nc2c(ncn2[C@H]2O[C@H]3COP(=O)(S)OCCn4c(nc5cncnc54)COP(=O)(S)O[C@@H]2C3)c(=O)[nH]1 (some centres undefined)	< 1
Nc1nc2c(ncn2[C@H]2O[C@@H]3COP(=O)(S)OCCn4c(nc5cc(Cl)cnc54)COP(=O)(S)O[C@@H]2[C@H]3F)c(=O)[nH]1 (some centres undefined)	< 1

target: T1, Stimulator of interferon genes protein; assay: as above; remark: another data set of the same source

Structure (SMILES)	IC50 [µM]
Nc1nc2c(ncn2[C@H]2O[C@@H]3COP(=O)(S)OCCn4c(nc5cncnc54)COP(=O)(S)O[C@@H]2[C@@H]3O)c(=O)[nH]1 (some centres undefined)	< 1
Nc1nc2c(ncn2[C@@H]2O[C@H]3COP(=O)(S)OCCn4c(nc5cncnc54)COP(=O)(S)O[C@@H]2C3)c(=O)[nH]1 (some centres undefined)	< 1
Nc1nc2c(ncn2[C@H]2O[C@@H]3COP(=O)(S)OCC(F)(F)Cn4c(nc5cncnc54)COP(=O)(S)O[C@@H]2[C@@H]3F)c(=O)[nH]1 (some centres undefined)	< 1
Nc1nc2c(nnn2[C@H]2O[C@@H]3COP(=O)(S)OCCn4c(nc5cncnc54)COP(=O)(S)O[C@@H]2[C@H]3F)c(=O)[nH]1 (some centres undefined)	< 1
Nc1nc2c(ncn2[C@@H]2O[C@@H]3COP(=O)(S)OCCn4c(nc5cncnc54)COP(=O)(S)O[C@@H]2[C@H]3O)c(=O)[nH]1 (some centres undefined)	< 1
Nc1nc2c(ncn2[C@H]2O[C@@H]3COP(=O)(S)OCCn4c(nc5cncnc54)COP(=O)(O)O[C@@H]2[C@H]3F)c(=O)[nH]1 (some centres undefined)	< 1
Nc1nc2c(ncn2[C@H]2O[C@@H]3COP(=O)(S)OCCn4nc(-c5ccncc5)nc4COP(=O)(S)O[C@@H]2[C@H]3F)c(=O)[nH]1 (some centres undefined)	< 1
Nc1nc2c(ncn2[C@@H]2O[C@@H]3COP(=O)(S)OCCn4nc(-c5cncs5)nc4COP(=O)(S)O[C@@H]2[C@H]3F)c(=O)[nH]1 (some centres undefined)	< 1
Nc1nc2c(nnn2[C@@H]2O[C@@H]3COP(=O)(S)OCCn4c(nc5cncnc54)COP(=O)(S)O[C@@H]2[C@H]3F)c(=O)[nH]1 (some centres undefined)	< 1
Nc1nc2c(ncn2[C@@H]2O[C@@H]3COP(=O)(O)OCCn4c(nc5cncnc54)COP(=O)(S)O[C@@H]2[C@H]3F)c(=O)[nH]1 (some centres undefined)	< 1
Nc1nc2c(ncn2[C@H]2O[C@@H]3COP(=O)(S)OCCn4nc(-c5cncs5)nc4COP(=O)(S)O[C@@H]2[C@H]3F)c(=O)[nH]1 (some centres undefined)	< 1
Nc1nc2c(ncn2[C@H]2O[C@H]3COP(=O)(S)OCCn4c(nc5cncnc54)COP(=O)(S)O[C@@H]2C3)c(=O)[nH]1 (some centres undefined)	< 1
Nc1nc2c(ncn2[C@H]2O[C@@H]3COP(=O)(S)OCCn4c(nc5cc(Cl)cnc54)COP(=O)(S)O[C@@H]2[C@H]3F)c(=O)[nH]1 (some centres undefined)	< 1
